According to article PMC6727465, “Discovery of 2-phenoxyacetamides as inhibitors of the Wnt-depalmitoleating enzyme NOTUM from an X-ray fragment screen” (MedChemComm, 2019):

What follows are molecules tested against T1, NOTUM(81-451 Cys330Ser) (Homo sapiens, UniProt Q6P988, C330S) (assay: biochemical).
T1 sequence (Q6P988 81-451 C330S): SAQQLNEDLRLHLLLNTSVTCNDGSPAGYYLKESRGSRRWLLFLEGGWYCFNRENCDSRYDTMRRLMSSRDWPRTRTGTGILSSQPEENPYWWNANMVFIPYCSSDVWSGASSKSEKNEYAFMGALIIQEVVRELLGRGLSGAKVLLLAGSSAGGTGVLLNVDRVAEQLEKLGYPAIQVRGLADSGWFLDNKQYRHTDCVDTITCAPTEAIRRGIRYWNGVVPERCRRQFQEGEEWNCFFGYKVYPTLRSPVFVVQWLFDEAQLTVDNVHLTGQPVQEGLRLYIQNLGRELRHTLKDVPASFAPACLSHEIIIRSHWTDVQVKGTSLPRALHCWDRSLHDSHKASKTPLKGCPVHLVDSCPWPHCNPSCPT

Structure (SMILES) | IC50 [nM]
Cc1ccccc1OCC(=O)Nc1ccc2cc[nH]c2c1 [Compound 26] | 210
Cc1ccccc1CCC(=O)Nc1cccnc1 [Compound 6] | 140000
Cc1ccccc1OCC(=O)Nc1ccc2nccnc2c1 [Compound 27] | 680
